What was measured:
[1] = target: Neuraminidase (Influenza A virus (A/Puerto Rico/8/1934(H1N1)), UniProt P03468)
[2] = target: Neuraminidase (Influenza A virus (A/Puerto Rico/8/1934(H1N1)), UniProt P03468); remark: listed apart in the source
[3] = target: Neuraminidase (Influenza A virus (A/Puerto Rico/8/1934(H1N1)), UniProt P03468); remark: listed apart in the source
[4] = target: Neuraminidase (Influenza A virus (A/Puerto Rico/8/1934(H1N1)), UniProt P03468); remark: listed apart in the source
[5] = target: Neuraminidase (Influenza A virus (A/Puerto Rico/8/1934(H1N1)), UniProt P03468); assay: Inhibition of sialidase (Flu A, 5 nM)
[6] = target: Neuraminidase (Influenza A virus (A/Puerto Rico/8/1934(H1N1)), UniProt P03468); remark: listed apart in the source
[7] = target: Neuraminidase (Influenza A virus (A/Puerto Rico/8/1934(H1N1)), UniProt P03468); remark: listed apart in the source
[8] = target: Neuraminidase (Influenza A virus (A/Puerto Rico/8/1934(H1N1)), UniProt P03468); assay: Inhibition of influenza A virus sialidase activity

By UniProt entry, the sequences of proteins in these tests, tags left out.
UniProt P03468, whole entry: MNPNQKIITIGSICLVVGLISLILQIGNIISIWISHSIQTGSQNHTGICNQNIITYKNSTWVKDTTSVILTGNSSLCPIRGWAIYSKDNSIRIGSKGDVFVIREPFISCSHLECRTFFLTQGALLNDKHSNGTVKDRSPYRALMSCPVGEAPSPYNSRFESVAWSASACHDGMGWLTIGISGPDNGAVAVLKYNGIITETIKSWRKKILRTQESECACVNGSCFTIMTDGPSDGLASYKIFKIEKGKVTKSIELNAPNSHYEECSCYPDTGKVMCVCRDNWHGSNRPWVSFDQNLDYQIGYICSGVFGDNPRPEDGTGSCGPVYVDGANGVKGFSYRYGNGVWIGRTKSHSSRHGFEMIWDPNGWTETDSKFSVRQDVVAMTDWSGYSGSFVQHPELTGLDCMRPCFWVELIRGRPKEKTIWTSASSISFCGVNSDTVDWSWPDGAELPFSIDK

Question: With CC(=O)N[C@@H]1[C@@H](N)C=C(C(=O)O)O[C@H]1C(=O)N1C(C)CCC1C (some centres not stated) as the compound, how does the IC50 [1] read?
Answer: Its IC50 is 35 nM.

Question: And the IC50 [2]?
Answer: Its IC50 is 110 nM.

Question: And the IC50 [3]?
Answer: Its IC50 is 6 nM.

Question: What about the IC50 [4] of the same compound?
Answer: Its IC50 is 1600 nM.

Question: And the IC50 [5]?
Answer: The IC50 was 6 nM.

Question: And the IC50 [6]?
Answer: Its IC50 is 5 nM.

Question: What about the IC50 [7] of the same compound?
Answer: The IC50 was 120 nM.

Question: Which IC50 [1] does the source give for CCCCN(CCCC)C(=O)[C@@H]1OC(C(=O)O)=C[C@H](N)[C@H]1NC(C)=O here?
Answer: Its IC50 is 100 nM.

Question: What about the IC50 [3] of the same compound?
Answer: The IC50 was 450 nM.

Question: What about the IC50 [4] of the same compound?
Answer: Its IC50 is 11000 nM.

Question: And the IC50 [7]?
Answer: The IC50 was 5900 nM.

Question: For CC(=O)N[C@H]1[C@@H](C(=O)N2C(C)CCC2C)OC(C(=O)O)=C[C@@H]1N (some centres not stated), which IC50 [8] is on record?
Answer: The IC50 was 110 nM.

Reference: ChEMBL document CHEMBL1131488, “Dihydropyrancarboxamides related to zanamivir: a new series of inhibitors of influenza virus sialidases. 1. Discovery, synthesis, biological activity, and structure-activity relationships of 4-guanidino- and 4-amino-4H-pyran-6-carboxamides” (J Med Chem, 1998)
